Publication PMC7723054
Some of the results follow.

T1: LIN28A (human?, UniProt Q9H9Z2 1-209)
T1 sequence: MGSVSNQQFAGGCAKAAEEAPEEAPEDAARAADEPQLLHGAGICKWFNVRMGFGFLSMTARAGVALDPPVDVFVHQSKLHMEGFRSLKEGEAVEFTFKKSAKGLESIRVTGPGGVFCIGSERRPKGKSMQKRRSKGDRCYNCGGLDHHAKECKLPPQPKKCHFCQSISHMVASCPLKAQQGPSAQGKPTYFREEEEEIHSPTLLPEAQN

T2: CIRBP (Homo sapiens, UniProt Q14011 1-172)
T2 sequence: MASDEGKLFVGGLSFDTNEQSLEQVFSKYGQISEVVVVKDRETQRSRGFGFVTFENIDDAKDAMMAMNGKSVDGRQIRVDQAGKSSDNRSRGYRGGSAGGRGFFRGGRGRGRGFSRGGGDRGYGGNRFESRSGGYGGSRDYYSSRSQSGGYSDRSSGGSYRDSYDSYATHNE

T3: DHX36 (Homo sapiens, UniProt Q9H2U1 1-1008)
T3 sequence: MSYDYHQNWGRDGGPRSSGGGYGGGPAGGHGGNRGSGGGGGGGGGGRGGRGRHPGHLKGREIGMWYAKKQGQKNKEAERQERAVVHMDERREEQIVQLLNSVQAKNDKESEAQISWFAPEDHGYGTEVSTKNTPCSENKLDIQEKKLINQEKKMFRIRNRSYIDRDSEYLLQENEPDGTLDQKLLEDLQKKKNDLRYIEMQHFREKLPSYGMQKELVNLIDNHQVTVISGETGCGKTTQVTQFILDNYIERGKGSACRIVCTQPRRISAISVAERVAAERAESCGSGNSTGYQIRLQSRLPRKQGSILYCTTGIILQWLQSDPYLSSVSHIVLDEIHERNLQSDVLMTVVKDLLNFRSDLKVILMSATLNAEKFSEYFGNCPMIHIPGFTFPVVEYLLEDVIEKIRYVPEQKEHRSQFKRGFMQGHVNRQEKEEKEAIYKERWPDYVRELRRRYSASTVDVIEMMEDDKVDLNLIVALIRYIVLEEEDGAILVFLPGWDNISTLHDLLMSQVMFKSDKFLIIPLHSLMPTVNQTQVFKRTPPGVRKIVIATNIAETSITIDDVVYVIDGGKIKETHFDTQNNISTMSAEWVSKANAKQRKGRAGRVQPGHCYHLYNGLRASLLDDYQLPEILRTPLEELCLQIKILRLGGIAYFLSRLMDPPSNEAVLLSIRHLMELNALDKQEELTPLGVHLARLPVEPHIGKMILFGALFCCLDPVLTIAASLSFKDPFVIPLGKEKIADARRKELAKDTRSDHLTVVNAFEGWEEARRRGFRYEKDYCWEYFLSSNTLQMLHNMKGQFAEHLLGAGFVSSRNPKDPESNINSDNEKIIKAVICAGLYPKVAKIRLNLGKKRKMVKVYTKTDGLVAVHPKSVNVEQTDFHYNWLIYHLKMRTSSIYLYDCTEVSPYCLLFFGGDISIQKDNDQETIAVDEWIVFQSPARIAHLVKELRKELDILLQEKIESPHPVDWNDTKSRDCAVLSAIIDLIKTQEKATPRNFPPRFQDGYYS

B1: hsa-mir-4483 (structured_RNA)
RNA: GGGAAAAGUCGACCGAUAAAUUACGAGAGGUGUACGAAGUUUCAGCCCCAUAUAAUAUUAGGGGGCUGAAGCUUCGUGCAC
B2: hsa-mir-4257 (structured_RNA)
RNA: GGGAGACCGUAUACGAUUUUGGCUGAUGGGUGUACGAAGUUUCAGCUUGGGGAGGAGCUAAGAAGCCCCUACAGGGCCCAGGCUGAAGCUUCGUGCAC
B3: hsa-mir-7159 (structured_RNA)
RNA: GGGAACAGACGGGAACGCAAUGGAUAUUGGUGUACGAAGUUUCAGCGGAUGGCCAGGGAAGUAUGCCGGGCCUUGGCAUUUCGCUGAAGCUUCGUGCAC
B4: hsa-mir-6165 (structured_RNA)
RNA: GGGACUGAGACAGUAGUAUCGUCGGCCAGGUGUACGAAGUUUCAGCGGAGAGGAUCCACCUGUCCUGUCCGCUGAAGCUUCGUGCAC
B5: hsa-mir-10a (structured_RNA)
RNA: GGGAGUUCUCGACAGGCCGGAAACUCAAGGUGUACGAAGUUUCAGCUUUGUGUAAGGAAUUUUGUGGUCACAAAGCUGAAGCUUCGUGCAC
B6: hsa-mir-30e (structured_RNA)
RNA: GGGAAAGUUAUCGUCCGGCUCGGUUCUAGGUGUACGAAGUUUCAGCGAAGCUGUAAGGUGUUCAGAGGAGCUUUGCUGAAGCUUCGUGCAC
B7: hsa-mir-548a-1 (structured_RNA)
RNA: GGGAAACAAAAGGAACAAAAGUCCACCCGGUGUACGAAGUUUCAGCUUUGCCAUUAAAAGUAACGACAAAGCUGAAGCUUCGUGCAC
B8: hsa-mir-3919 (structured_RNA)
RNA: GGGAACAGACUAUGUGAAUGGGCGACUGGGUGUACGAAGUUUCAGCCUACUAGUUUGUAGUAGUUCGUAGCAGGCUGAAGCUUCGUGCAC
B9: hsa-mir-7155 (structured_RNA)
RNA: GGGAAUGAACGAAAUACGGGCUGGUAUAGGUGUACGAAGUUUCAGCGCCAUCUGGUUGUGACAUCACUGAUGGCGCUGAAGCUUCGUGCAC
B10: hsa-mir-5192 (structured_RNA)
RNA: GGGAAAUGCACCACAAAUCUAUGGCCAAGGUGUACGAAGUUUCAGCUCCUGGGAAGCAUGGUAGCCAGGAGCUGAAGCUUCGUGCAC
B11: hsa-mir-598 (structured_RNA)
RNA: GGGAAAGGCACAGGUCUGAUUGCGAUGGGGUGUACGAAGUUUCAGCGUGAGCUGGAAAUGGGGUGCUACGCUGAAGCUUCGUGCAC
B12: hsa-mir-4523 (structured_RNA)
RNA: GGGACGAUUUCUCGGGAAAUUUCGGAACGGUGUACGAAGUUUCAGCCUGUGUGAGGACUAGAGGCGGGCUGAAGCUUCGUGCAC
B13: hsa-mir-6855 (structured_RNA)
RNA: GGGAGGGAUUCAGACCGGAUUCCAUACGGGUGUACGAAGUUUCAGCGACAUUGCCAGAGGAUGGGCAGCAGACGCUGAAGCUUCGUGCAC

Biological target: T1, LIN28A
Test: FOREST: bead pull-down of RNA structure library v1, barcode microarray; U1A/LIN28A: 20 mM HEPES pH 7.5, 80 mM KCl, 20 mM NaCl, 10% glycerol, 2 mM DTT, 0.1 ug/uL BSA, 4 C; BG4/CIRBP/DHX36: 10 mM Tris-HCl pH 7.5, 100 mM KCl (or LiCl),; high values mean tight binding

In order of falling binding signal:
1. B11  2.35 z-score
2. B6  2.34 z-score
3. B13  2.22 z-score
4. B3  2.08 z-score
5. B2  1.93 z-score
6. B5  1.91 z-score
7. B7  1.9 z-score
8. B9  1.86 z-score
9. B12  1.82 z-score
10. B4  1.77 z-score
11. B8  1.68 z-score
12. B10  1.66 z-score
13. B1  1.64 z-score

Biological target: T2, CIRBP
Test: as above

In order of rising binding signal:
1. B7  -1.5 z-score
2. B5  -0.333 z-score
3. B10  0.0873 z-score
4. B11  0.281 z-score
5. B8  0.752 z-score
6. B3  0.812 z-score
7. B12  0.847 z-score
8. B2  0.919 z-score
9. B1  1.63 z-score
10. B9  1.67 z-score
11. B4  2.22 z-score
12. B6  2.29 z-score

Biological target: T3, DHX36
Test: as above

In order of falling binding signal:
1. B4  1.71 z-score
2. B1  1.36 z-score
3. B12  1.29 z-score
4. B3  0.817 z-score
5. B2  0.756 z-score
6. B11  0.749 z-score
7. B6  0.262 z-score
8. B8  0.081 z-score
9. B13  -0.0992 z-score
10. B7  -0.273 z-score
11. B10  -0.293 z-score
12. B5  -0.412 z-score
13. B9  -1.02 z-score
